Assay results published in publication PMC5010535 (Cancer research, 2016).

Key:
[1] = system: AR N/C interaction; assay: Fluorescent-Two Hybrid assay for AR N/C interaction; assay type: cell-based; settings: BHK cells, 10 μM, media containing androgens
[2] = system: AR-V7; assay: AR-V7 mRNA and protein expression in LNCaP-95 cells; assay type: cell-based; settings: 10 μM, 48 hours

SMILES | AR interdomain (N/C) interaction [1] | AR-V7 mRNA expression ([2]; relative to RPL19) | AR-V7 protein abundance ([2]; western blot)
CNC(=O)c1ccc(N2C(=S)N(c3cnc(C#N)c(C(F)(F)F)c3)C(=O)C23CCC3)cc1F [ARN509] | suppressed AR interdomain interaction |  | 
CNC(=O)c1ccc(N2C(=S)N(c3ccc(C#N)c(C(F)(F)F)c3)C(=O)C2(C)C)cc1F [enzalutamide] | suppressed AR interdomain interaction | increased AR-V7 mRNA expression | increased AR-V7 mRNA expression and protein levels
